Values of other authors as cited in US5814460A, “Method for generating and screening useful peptides” (Diatide, Inc., priority 1995, dated 1998).

Amino acid sequences for entries named in this document (tags omitted). Residues count along the entry.
UniProt P05106, 27-788: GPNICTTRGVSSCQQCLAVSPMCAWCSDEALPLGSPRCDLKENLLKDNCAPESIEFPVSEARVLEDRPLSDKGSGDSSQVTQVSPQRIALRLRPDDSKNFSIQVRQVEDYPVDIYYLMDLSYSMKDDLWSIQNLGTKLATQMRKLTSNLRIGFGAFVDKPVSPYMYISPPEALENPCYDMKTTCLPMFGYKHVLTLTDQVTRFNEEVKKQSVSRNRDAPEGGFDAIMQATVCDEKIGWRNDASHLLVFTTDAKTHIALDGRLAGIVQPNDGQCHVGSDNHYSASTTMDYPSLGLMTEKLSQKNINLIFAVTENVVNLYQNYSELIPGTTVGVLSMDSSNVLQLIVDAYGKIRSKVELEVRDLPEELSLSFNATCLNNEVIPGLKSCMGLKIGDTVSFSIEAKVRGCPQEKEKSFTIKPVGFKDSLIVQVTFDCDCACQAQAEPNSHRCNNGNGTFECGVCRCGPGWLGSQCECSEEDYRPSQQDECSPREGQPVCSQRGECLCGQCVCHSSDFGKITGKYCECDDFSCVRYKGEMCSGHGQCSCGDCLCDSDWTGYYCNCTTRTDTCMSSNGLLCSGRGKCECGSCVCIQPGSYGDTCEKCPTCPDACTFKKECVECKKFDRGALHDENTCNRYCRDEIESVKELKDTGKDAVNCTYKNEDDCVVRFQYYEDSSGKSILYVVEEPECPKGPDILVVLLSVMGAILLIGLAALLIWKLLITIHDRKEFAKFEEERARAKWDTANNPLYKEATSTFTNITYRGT
UniProt P08514, 32-887 limits assumed: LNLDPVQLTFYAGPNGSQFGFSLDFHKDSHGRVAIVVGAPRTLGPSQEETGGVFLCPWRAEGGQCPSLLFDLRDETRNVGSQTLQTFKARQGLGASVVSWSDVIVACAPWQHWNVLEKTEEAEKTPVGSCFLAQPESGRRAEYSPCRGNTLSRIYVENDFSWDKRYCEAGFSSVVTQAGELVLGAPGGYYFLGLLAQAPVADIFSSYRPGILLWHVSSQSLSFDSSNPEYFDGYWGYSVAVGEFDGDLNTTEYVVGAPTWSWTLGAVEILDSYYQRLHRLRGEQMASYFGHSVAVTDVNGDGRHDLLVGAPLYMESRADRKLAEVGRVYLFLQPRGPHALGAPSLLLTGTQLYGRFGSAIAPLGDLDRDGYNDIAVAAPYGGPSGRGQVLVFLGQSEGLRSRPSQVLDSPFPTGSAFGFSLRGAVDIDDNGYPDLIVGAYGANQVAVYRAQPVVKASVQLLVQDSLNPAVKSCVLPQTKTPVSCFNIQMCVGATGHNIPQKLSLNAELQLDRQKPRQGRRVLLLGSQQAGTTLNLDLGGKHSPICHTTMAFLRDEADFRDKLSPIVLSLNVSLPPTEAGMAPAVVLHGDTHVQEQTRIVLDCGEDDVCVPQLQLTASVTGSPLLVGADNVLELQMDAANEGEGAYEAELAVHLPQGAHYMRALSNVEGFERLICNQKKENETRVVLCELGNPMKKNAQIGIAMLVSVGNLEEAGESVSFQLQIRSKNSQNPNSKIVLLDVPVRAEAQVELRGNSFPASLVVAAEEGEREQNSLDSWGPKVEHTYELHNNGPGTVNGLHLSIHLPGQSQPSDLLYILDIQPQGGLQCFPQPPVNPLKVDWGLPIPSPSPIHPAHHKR
UniProt P08514, 891-1039 partner limits assumed: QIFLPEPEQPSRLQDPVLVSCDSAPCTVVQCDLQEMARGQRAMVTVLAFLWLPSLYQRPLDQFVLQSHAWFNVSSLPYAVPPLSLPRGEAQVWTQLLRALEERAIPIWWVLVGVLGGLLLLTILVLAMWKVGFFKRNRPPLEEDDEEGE
UniProt P02679, 114-432 limits assumed: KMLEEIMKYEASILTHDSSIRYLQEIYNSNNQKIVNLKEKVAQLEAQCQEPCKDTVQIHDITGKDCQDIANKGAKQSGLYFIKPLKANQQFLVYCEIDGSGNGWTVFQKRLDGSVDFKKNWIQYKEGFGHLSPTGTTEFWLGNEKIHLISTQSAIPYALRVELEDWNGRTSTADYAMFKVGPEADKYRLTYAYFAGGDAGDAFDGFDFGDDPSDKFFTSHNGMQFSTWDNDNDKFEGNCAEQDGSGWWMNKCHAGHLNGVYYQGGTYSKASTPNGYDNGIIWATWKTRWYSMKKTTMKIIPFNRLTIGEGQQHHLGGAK
UniProt P02679, 27-433 limits assumed: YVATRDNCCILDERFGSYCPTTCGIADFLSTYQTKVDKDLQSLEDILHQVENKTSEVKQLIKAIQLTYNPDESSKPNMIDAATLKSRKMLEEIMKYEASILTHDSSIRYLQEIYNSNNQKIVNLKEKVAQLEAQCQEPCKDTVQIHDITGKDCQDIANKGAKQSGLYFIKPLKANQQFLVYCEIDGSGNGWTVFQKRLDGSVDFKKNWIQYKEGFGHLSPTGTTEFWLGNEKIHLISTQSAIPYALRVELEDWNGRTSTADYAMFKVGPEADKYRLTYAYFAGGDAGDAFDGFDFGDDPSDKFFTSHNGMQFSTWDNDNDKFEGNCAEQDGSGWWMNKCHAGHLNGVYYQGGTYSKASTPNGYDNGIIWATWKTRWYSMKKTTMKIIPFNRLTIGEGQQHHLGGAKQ

Legend:
[1] = biological target: fibrinogen receptor (GpIIb IIIa) (Homo sapiens, UniProt P05106+P08514); conditions: Table 6, target GpIIb IIa
[2] = biological target: fragment D from fibrinogen (Homo sapiens, UniProt P02679); conditions: read-out: affinity (KGPRP) for fragment D
human fibrinogen = human fibrinogen (Homo sapiens, UniProt P02679); conditions: read-out: affinities for human fibrinogen

Row | pKd [2] | pKd (human fibrinogen) | Substance | pKd [1]
1 |  |  | RGDF | 5.00
2 | 4.70 | 4.60 | GPRP | 

pKd: −log10 of the molar value.
